According to patent US20230293495A1, “PHARMACEUTICAL FORMULATIONS FOR TREATING DISEASES MEDIATED BY KDM1A” (Imago Biosciences, Inc., priority 2020, published 2023):

Test: Excipient compatibility study: binary mixtures of Compound B and excipient in open vials, assay and related substances (RS)
Assay type: physicochemical
Conditions: 2 weeks, 50° C./11% RH
Protocol: Phase one of Compound B drug product development was initiated with an excipient compatibility study to identify excipients physically and chemically compatible with Compound B API. Commonly used excipients for oral solid dosage formulations were evaluated for this study including fillers, binders, disintegrants, glidants, lubricants and organic acid stabilizers.
Samples were prepared with a binary mixture of Compound B and an excipients from Table 1. Briefly, each excipient and API were individually weighed and filled in vials, followed by the addition of glass beads. The samples were closed, vortexed, and refrigerated at 2 to 8° C. prior to initiation of study as the sample preparation was executed over a period of 10 days. All vials were removed from the refrigerator and allowed to equilibrate to room temperature, then opened, and stored at the designated storage conditions at the same t=0.
The sample of Compound B API and excipients were stored as binary mixtures in open vials at 50° C./11% RH and 50° C./75% RH conditions and evaluated at t=0, 1 week, and 2 weeks for appearance, assay, and RS.

For `CN1CCN(C(=O)[C@H](CCCN[C@@H]2C[C@H]2c2ccc(F)cc2)NC(=O)c2ccc(-n3ccnn3)cc2)CC1.Cc1ccc(S(=O)(=O)O)cc1` [Compound B, N—((S)-5-((1R,2S)-2-(4-fluorophenyl)cyclopropylamino)-1-(4-methylpiperazin-1-yl)-1-oxopentan-2-yl)-4-(1H-1,2,3-triazol-1-yl)benzamide ditosylate], the “Related substance RRT 1.022” value was 0.0489 and the Related substance RRT 1.081 was 0.059%.
